Values of other authors as cited in patent US20210087232A1, “D-ENANTIOMERIC PEPTIDES FOR ANTI-INFLAMMATORY TREATMENT OF AMYOTROPIC LATERAL SCLEROSIS (ALS) AND OTHER DISEASES DRIVEN BY NEURO-INFLAMMATION” (FORSCHUNGSZENTRUM JUELICH GMBH, priority 2018, published 2021).

Test system: ALS patients
Settings: cited from earlier work

In the case of `Nc1nc2ccc(OC(F)(F)F)cc2s1` [riluzole], the “survival time of patients” value is listed as “prolonging the survival time of patients by a few months”.
